## Binding of CDR-mutated scFvs to a peptide of the spike HR2 region

Target peptide (SARS-CoV-2 spike, HR2 region): PDVDLGDISGINAS

The variants keep the heavy chain, the linker and the frameworks of Ab-14 (scFv order VH, the linker GGGGSGGGGSGGGGS, VL).
VH: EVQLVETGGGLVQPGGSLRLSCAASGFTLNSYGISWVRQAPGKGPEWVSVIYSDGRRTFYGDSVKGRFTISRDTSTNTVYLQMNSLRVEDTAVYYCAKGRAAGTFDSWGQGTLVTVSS
VL: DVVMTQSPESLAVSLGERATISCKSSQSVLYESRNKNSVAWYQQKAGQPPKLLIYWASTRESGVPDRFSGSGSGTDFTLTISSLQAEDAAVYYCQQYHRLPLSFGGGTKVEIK

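The starting antibody came from a phage panning campaign against this peptide. The variants were designed computationally from a first round of random CDR variants and then made and measured. Several design methods are mixed in this list. The scFvs were displayed on barcoded MATa yeast, the peptide on MATalpha yeast. Mating (16 h, 30 °C) was followed by selection of diploids and sequencing of their barcodes. Scores were corrected for input abundance and mapped to Kd with protein pairs of known affinity run in the same pool. There are six technical replicates.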

Variants are written as CDR1, CDR2 and CDR3 of the light chain (limits as in the source). Parent: KSSQSVLYESRNKNSVA, WASTRES, QQYHRLPLS. Numbers give log10(Kd / nM), so 0 is 1 nM and 3 is 1 µM. Smaller is tighter. The mean shown is taken over the replicates in which the pair was detected. An entry "nd" has no value in the source: the pair was not observed among the diploids in any replicate. This suggests poor binding but is not conclusive. The authors' rule: three or more of the six replicates give a measured affinity, fewer mean a poor binder. Empty control strains, which show no peptide, gave a signal in 4% of pairings with all light chain designs; the median was 2.64 and 95% of these signals were weaker than 1.59. No background was subtracted. Of ten entries with the parent sequence, four were seen in most replicates (averages 0.34 to 2.37), three in one and three in none, so single entries are noisy. A sequence measured in both rounds can read differently, since the two assays cover different ranges.

Read-out 1.75 (2 of 6 replicates), from KSSQSVLYESRGKNSVA | WASTRES | QQYHRLPLE.
Read-out nd (0 of 6 replicates), from KSSPSVLYEHRNKNSVA | WASTREH | QQPHRLPLS.
Read-out 0.32 (6 of 6 replicates), from KLQQSWLYESRNKNSVA | GASTRLS | QQYHRLPLS.
Read-out 0.01 (6 of 6 replicates), from KLQQSWLYESRNKNSVA | QASQRES | QQYHRLPLS.
Read-out 1.98 (6 of 6 replicates), from MVGQGLMGESRAKNSIA | HASLRFD | QQYHRLPLI.
Read-out -0.32 (6 of 6 replicates), from KCQQSVLYESRNKNNVA | AASTRED | QQYHRLPLS.
Read-out -0.26 (6 of 6 replicates), from KLEQSQLYESRNKNSVA | NASTRLS | QQYHRLPLS.
Read-out -0.18 (6 of 6 replicates), from KLSQSNLYESRMKNSVA | NASQRES | QQYHRLPLS.
Read-out 1.15 (6 of 6 replicates), from KVSEFMRGLMMRTNSIA | DNNTRQN | QQYDRLPLS.
Read-out 1.32 (6 of 6 replicates), from TIGQTLMSGVRNRSNVA | EVSQRLN | QQYDRLPLF.
Read-out nd (0 of 6 replicates), from KSSQSVEMESRNKNSVA | WASTRES | QSYHRLHLS.
Read-out -0.13 (6 of 6 replicates), from KSSQSVLYESRNKNSVA | GASTRED | QDYHRLPLS.
Read-out 0.64 (6 of 6 replicates), from KLSQDDLYESRNCNNVA | QASTREQ | QQYHRLPLS.
Read-out 1.91 (6 of 6 replicates), from SLVQEKSVGDANMGNIA | AANQLSV | QQYNRLPLS.
Read-out -0.01 (6 of 6 replicates), from KLQQSVPYESRNKNSVA | NASTREV | QQYHRLPLS.
Read-out 1.34 (5 of 6 replicates), from KLLQVTENMQLNRNSVA | HMSTRED | QQYHRLPLS.
Read-out -0.06 (6 of 6 replicates), from RLTEHYSEKKAADASVA | DANTRND | QQYHRLPLF.
Read-out nd (0 of 6 replicates), from KVRQSTLYESRNKNSVA | WASTRES | SQYHMLPLS.
Read-out 0.40 (6 of 6 replicates), from MFSQLTMYGSRNYNSVA | QASTRES | QQYHRLPLI.
Read-out -0.11 (6 of 6 replicates), from KFSISWGMESRNKNSVA | NASTRMS | QQYHRLPLS.
Read-out 0.19 (6 of 6 replicates), from KVQQSVLYESRNKNSVA | NASTRES | QQYHRLPLS.
Read-out 2.57 (4 of 6 replicates), from KSDQSVLYESLNKNSVA | TASTRES | QQYHRLPLC.
Read-out 0.25 (6 of 6 replicates), from HMNHEYLEYSNYEGNIA | HGSQRLY | QQYSHLPLS.
Read-out 0.81 (6 of 6 replicates), from KSSQLELYEDRMKNSVA | NASYRLD | QQYHRLPLS.
Read-out 0.65 (6 of 6 replicates), from QFEFHEEEGYQYSNNIA | NGEQRFS | QQYVKLPLV.
Read-out -0.36 (6 of 6 replicates), from KLSQSQLYESRNKNNVA | NASTRMS | QQYHRLPLS.
Read-out 0.06 (6 of 6 replicates), from KFSQSVLYESRNKWSVA | NASTRES | QQYHRLPLS.
Read-out 0.31 (6 of 6 replicates), from KVSQSGLYESRNKWSVA | NASTRES | QQYHRLPLS.
Read-out -0.18 (6 of 6 replicates), from KWSWSVLFESRNKNSVA | DASTRES | QQYHRLPLS.
Read-out -0.01 (6 of 6 replicates), from KSSQSVDGEQRNKNSVA | DISTRES | QQYHRLPLS.
Read-out -0.30 (6 of 6 replicates), from KLPQSYLYESRNKNSVA | NASTRES | QQYHRLPLS.
Read-out nd (0 of 6 replicates), from KSSQSVLYESRNKNSVA | SASTRES | QQQHRLPLS.
Read-out 1.47 (6 of 6 replicates), from KISMLYNFAQTNKNSIA | EMTTRES | QHYHRLPLS.
Read-out -0.08 (6 of 6 replicates), from QIYQAMHTLMQMKNNVA | DVNERGD | QQYFRLPLA.
Read-out 0.35 (6 of 6 replicates), from KLQWLWLYSSRNKNSVA | NASTRES | QQYHRLPLS.
Read-out -0.08 (6 of 6 replicates), from KLPQSTLYESRNKNSVA | HASTRES | QQYHRLPLS.
Read-out 0.39 (6 of 6 replicates), from KLSQVTEYEMHNKDNVA | DLTTRGA | QDYHRLPLS.
Read-out 0.69 (6 of 6 replicates), from KSSQSVLYESRNENSVA | WASTRES | QQYHRLPLS.
Read-out 0.05 (6 of 6 replicates), from KSSYSELGEKRNKNSVA | EASTRES | QQYHRLPLS.

Repeated from above, the 4 best binders with a signal in all replicates:

| CDR-L1 | CDR-L2 | CDR-L3 | mean log10 Kd (nM) | replicates with signal |
|---|---|---|---|---|
| KLSQSQLYESRNKNNVA | NASTRMS | QQYHRLPLS | -0.36 | 6/6 |
| KCQQSVLYESRNKNNVA | AASTRED | QQYHRLPLS | -0.32 | 6/6 |
| KLPQSYLYESRNKNSVA | NASTRES | QQYHRLPLS | -0.30 | 6/6 |
| KLEQSQLYESRNKNSVA | NASTRLS | QQYHRLPLS | -0.26 | 6/6 |

Reference: Li et al. 2023, doi:10.1038/s41467-023-39022-2. File: FLAb, binding data.